From ChEMBL document CHEMBL2440029, “Discovery and characterization of NVP-QAV680, a potent and selective CRTh2 receptor antagonist suitable for clinical testing in allergic diseases” (Bioorg Med Chem, 2013)

Test: Antagonist activity at CRTh2 receptor in human isolated eosinophil assessed as inhibition of DK-PGD2-induced shape change after 5 mins by flow cytometry

## Cc1c(CC(=O)O)c2cccnc2n1S(=O)(=O)c1ccc(F)c(F)c1
  IC50: 9 nM
